## Ab-14 light chain CDR variants: yeast mating affinities

Reference: Engelhart et al. 2022, doi:10.1038/s41597-022-01779-4. File: FLAb, binding data.

Target peptide (SARS-CoV-2 spike, HR2 region): PDVDLGDISGINAS

Ab-14 is the parent antibody, in scFv form: VH, then a (GGGGS)3 linker, then VL. The heavy chain is unchanged in all variants.
VH: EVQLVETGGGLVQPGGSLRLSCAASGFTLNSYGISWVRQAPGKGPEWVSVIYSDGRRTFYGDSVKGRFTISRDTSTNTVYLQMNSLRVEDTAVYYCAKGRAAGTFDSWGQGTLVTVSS
VL: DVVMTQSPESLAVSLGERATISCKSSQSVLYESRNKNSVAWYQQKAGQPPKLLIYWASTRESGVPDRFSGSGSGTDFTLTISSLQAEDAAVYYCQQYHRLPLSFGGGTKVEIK

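The starting antibody came from a phage panning campaign against this peptide. AAYL50 was designed without a model: most single CDR substitutions and a random sample of double and triple ones. Affinity was read by AlphaSeq, a pooled yeast mating assay with surface-displayed partners. After mating in shaken culture at 30 °C for 16 h, diploids were selected and their barcode pairs sequenced. The ratio of observed to expected reads was calibrated, replicate by replicate, on BCL2-family standards whose Kd was known from biolayer interferometry. The assay was run in three technical replicates.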

The parent's light chain CDRs are KSSQSVLYESRNKNSVA, WASTRES, QQYHRLPLS; each variant's own CDRs replace them letter for letter. All variants listed here change S38 of the VL, counted from its first residue. Values are log10 of the apparent Kd in nM; lower means stronger binding. A mean of the replicates is given; it leaves out those without a signal. "no signal" marks a missing value. The strain was present, yet no cells mated with the target were sequenced in any replicate, which points to weak or no binding. Nonspecific signal, from three strains lacking the peptide, appeared in 18% of pairings of library AAYL50, centred on 4.19 (5% of these signals below 2.99); values are not corrected for it. Parent in this assay: reference entry 0.65, copy in this library 1.68.

For KSSQTVGYESRNKNVVA | WASTRES | QQYHRLPLS, the assay gave no signal (0 of 3 replicates). The variant KSSQSVLYEYRNWNQVA | WASTRES | QQYHRLPLS showed 2.22 (3 of 3 replicates). The variant KSVQSVLYESRNKNYVA | WISTRES | QQYHRLPLS showed no signal (0 of 3 replicates). The variant KSSQSVLYESRNKNPVA | WASTRES | QTYHRLWLS showed no signal (0 of 3 replicates). The variant KSSQSVLYWSRNKCIVA | WASTRES | QQYHRLPLS gave 4.31 (1 of 3 replicates).

With GSSQSELYESRNKNGVA | WASTRES | QQYHRLPLS the result was 3.73 (1 of 3 replicates). With KSSQSVLYESLNKNHVA | WASTMES | QQYHRLPLS the result was no signal (0 of 3 replicates). For KSSQSVLYESRNKWIVA | WAQTRES | QQYHRLPLS, the assay gave 4.99 (1 of 3 replicates). The variant KSSQSMLYESRNKNWVA | WASTREE | QQYHRLPLS gave 2.24 (3 of 3 replicates). The variant KSSQSVLYESRNKNQVA | PASTRES | QQYHRLPLS gave no signal (0 of 3 replicates).

For KQSQSVLYESRNKNGVA | WASTRES | QQYHRLPLH, the assay gave no signal (0 of 3 replicates). With KSSQSVLYEYRNKNMVA | WWSTRES | QQYHRLPLS the result was no signal (0 of 3 replicates). For KSSQSVLYESRNKNIVA | WAHTRFS | QQYHRLPLS, the assay gave no signal (0 of 3 replicates). For KSSQSVLYESRNKNAFA | WASCRES | QQYHRLPLS, the assay gave 3.56 (1 of 3 replicates). The variant KWSQSVLYESRNKNPVA | WAQTRES | QQYHRLPLS showed 2.79 (3 of 3 replicates).

With KSSQSVLYWSRNKNKVA | WASTRES | NQYHRLPLS the result was no signal (0 of 3 replicates). The variant KSSQSVLYESRNKNEVA | WASTRES | QIYHLLPLS gave 5.30 (1 of 3 replicates). The variant KSSQSVLYESRNKNGVA | WASTRES | QQIHRLPVS gave 2.00 (2 of 3 replicates). With KSSQSVLYESRNKNNVA | WASDRES | QQGHRLPLS the result was 2.41 (3 of 3 replicates). The variant KSSQGVRYESRNKNCVA | WASTRES | QQYHRLPLS gave 3.10 (3 of 3 replicates).

The variant ESSQSVLYESRNDNIVA | WASTRES | QQYHRLPLS showed no signal (0 of 3 replicates). With KSSQSVLYESRNKNLVA | VASTRES | QQYHRLPLS the result was no signal (0 of 3 replicates). With DSSNSVLYESRNKNHVA | WASTRES | QQYHRLPLS the result was no signal (0 of 3 replicates). For KSSQSVLYESRNKNNVA | WHSTRES | QQYHRFPLS, the assay gave 4.73 (1 of 3 replicates). With KSSQSVLYESRNKNGVA | WAITRES | QQYHRDPLS the result was 3.91 (1 of 3 replicates).

For KSSQSVLYESRNKNIVA | WASTRES | QQYSRLPKS, the assay gave no signal (0 of 3 replicates). The variant KSSQSVLYESRNKNEVS | WAKTRES | QQYHRLPLS gave 4.45 (2 of 3 replicates). For KSSQSVLEESRNKNKVA | WASTRES | QQYHRLPNS, the assay gave no signal (0 of 3 replicates). The variant KSSQSVLYEERNKNEVA | WASTRES | QQYCRLPLS gave no signal (0 of 3 replicates). With KSSQSVLYESRNKNKVA | WASTRES | QQYHRLILS the result was no signal (0 of 3 replicates).

The variant KLSGSVLYESRNKNRVA | WASTRES | QQYHRLPLS gave 0.76 (3 of 3 replicates). For KSSQSVLYESRNKNLVI | WASTRES | QQYHRPPLS, the assay gave no signal (0 of 3 replicates). For KSSQSVLYESRDKNIVA | WASTRES | EQYHRLPLS, the assay gave no signal (0 of 3 replicates). For KSSYSVLYESRNKNFVA | WASTRES | QQYHRLPLS, the assay gave 3.71 (2 of 3 replicates). The variant KSSQSVLYESRNKNNVA | WASTRWS | QQYHRCPLS showed no signal (0 of 3 replicates).

With KSSQSVLYESRNPNHVA | WASTRES | QQYHRLPLS the result was 1.26 (3 of 3 replicates). With KSSQSVLYESRQKNYVA | WASTREL | QQYHRLPLS the result was 2.99 (1 of 3 replicates). The variant KSRQSVLYESRNKNEVA | WASTRES | QQYHREPLS showed 3.85 (3 of 3 replicates). For KSSQSVLYESRNKNHVA | WASTRAS | QQYHRLPDS, the assay gave 4.56 (1 of 3 replicates). With KSSQSVLYEDRNKNRVA | WASTRES | QQYHRFPLS the result was 3.04 (3 of 3 replicates).

With KSSQSVLYESRNQNNVA | WASTRES | DQYHRLPLS the result was no signal (0 of 3 replicates). The variant KSQQSVLYESNNKNAVA | WASTRES | QQYHRLPLS gave 0.46 (3 of 3 replicates). With KSSQSVLYESRNKNFVQ | WASTRES | QIYHRLPLS the result was no signal (0 of 3 replicates). For KSSQSVLYESRNKNTVA | WASTRES | QQYHRLPLS, the assay gave 3.18 (3 of 3 replicates). With KSSTSVLYEYRNKNIVA | WASTRES | QQYHRLPLS the result was no signal (0 of 3 replicates).

With KSSQSVLYEKRNKNPVA | WASTREG | QQYHRLPLS the result was 3.02 (3 of 3 replicates). For KSSQSVLYESRNKPMVA | WASTRES | QQYHRLPLS, the assay gave 3.31 (1 of 3 replicates). The variant KSSQSVLYESRNYNFVA | WASTRES | QQYHHLPLS gave 4.31 (1 of 3 replicates). The variant KSSQSVLYESRNKNLVA | WAYTREL | QQYHRLPLS gave no signal (0 of 3 replicates). With KSSQSVLYESRNKNEVA | SASTRES | QQEHRLPLS the result was 2.42 (3 of 3 replicates).